Measured values: patent US20250360143A1, “COMPOSITIONS AND METHODS FOR PHARMACOLOGIC TREATMENT OF STROKE AND MYOCARDIAL ISCHEMIA REPERFUSION INJURY” (priority 2022, published 2025)

Molecular target: T1, hP2X4R (Homo sapiens, UniProt Q99571)
T1 construct: expressed in transfected cells; host or cells: HEK-293
T1 sequence (Q99571 1-388): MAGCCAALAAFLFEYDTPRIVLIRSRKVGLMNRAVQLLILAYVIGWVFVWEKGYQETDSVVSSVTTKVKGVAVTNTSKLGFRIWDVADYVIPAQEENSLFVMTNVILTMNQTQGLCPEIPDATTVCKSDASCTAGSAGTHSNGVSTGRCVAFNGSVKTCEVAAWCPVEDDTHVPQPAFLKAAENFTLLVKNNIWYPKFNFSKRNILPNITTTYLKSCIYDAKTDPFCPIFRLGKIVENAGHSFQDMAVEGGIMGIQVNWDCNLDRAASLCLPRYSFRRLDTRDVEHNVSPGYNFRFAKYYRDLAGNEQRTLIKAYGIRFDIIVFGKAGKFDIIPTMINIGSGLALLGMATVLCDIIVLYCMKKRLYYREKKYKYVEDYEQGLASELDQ
Type: cell-based

Substance: 2′,3′-O-Trinitrophenyl-adenosine-5′-triphosphate [TNP-ATP, reference compound]
- IC50: 2770 nM
